Source: publication doi:10.1101/2025.07.27.667015v3 (biorxiv, 2025)

System: Cc1ncc(COP(=O)(O)O)c(C=O)c1O
Assay: purified protein
Conditions: L-Met 20 mM, 50 mM Tris-HCl pH 8.0, 20 °C, varied: cofactor

## yMGL-ΔCTD (Yarrowia lipolytica CLIB122; DEL253-380)
  Km: 1.65 ± 0.00 µM
  kcat: 0.01 ± 0.00 s⁻¹
